Conditions in all cases: SUD4
Experiment [1] addresses T1, Zinc finger and BTB domain-containing protein 43 (Homo sapiens) (UniProt O43298).
T1 sequence (whole entry): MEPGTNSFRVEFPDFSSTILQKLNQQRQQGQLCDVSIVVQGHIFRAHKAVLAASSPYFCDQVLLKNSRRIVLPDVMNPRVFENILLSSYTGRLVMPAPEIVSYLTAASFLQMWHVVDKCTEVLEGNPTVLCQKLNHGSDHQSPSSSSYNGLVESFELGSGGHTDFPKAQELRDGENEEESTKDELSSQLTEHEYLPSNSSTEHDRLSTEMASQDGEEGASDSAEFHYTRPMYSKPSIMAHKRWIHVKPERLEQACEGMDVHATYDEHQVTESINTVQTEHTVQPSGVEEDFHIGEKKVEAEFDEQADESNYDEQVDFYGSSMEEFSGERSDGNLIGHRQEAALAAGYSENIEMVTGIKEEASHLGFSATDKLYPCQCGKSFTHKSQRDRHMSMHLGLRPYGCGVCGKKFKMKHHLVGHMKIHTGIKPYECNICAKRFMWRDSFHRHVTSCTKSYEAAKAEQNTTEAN

Experiment [2] addresses T2, Zinc finger and BTB domain-containing protein 1 (Homo sapiens) (UniProt Q9Y2K1).
T2 sequence (whole entry): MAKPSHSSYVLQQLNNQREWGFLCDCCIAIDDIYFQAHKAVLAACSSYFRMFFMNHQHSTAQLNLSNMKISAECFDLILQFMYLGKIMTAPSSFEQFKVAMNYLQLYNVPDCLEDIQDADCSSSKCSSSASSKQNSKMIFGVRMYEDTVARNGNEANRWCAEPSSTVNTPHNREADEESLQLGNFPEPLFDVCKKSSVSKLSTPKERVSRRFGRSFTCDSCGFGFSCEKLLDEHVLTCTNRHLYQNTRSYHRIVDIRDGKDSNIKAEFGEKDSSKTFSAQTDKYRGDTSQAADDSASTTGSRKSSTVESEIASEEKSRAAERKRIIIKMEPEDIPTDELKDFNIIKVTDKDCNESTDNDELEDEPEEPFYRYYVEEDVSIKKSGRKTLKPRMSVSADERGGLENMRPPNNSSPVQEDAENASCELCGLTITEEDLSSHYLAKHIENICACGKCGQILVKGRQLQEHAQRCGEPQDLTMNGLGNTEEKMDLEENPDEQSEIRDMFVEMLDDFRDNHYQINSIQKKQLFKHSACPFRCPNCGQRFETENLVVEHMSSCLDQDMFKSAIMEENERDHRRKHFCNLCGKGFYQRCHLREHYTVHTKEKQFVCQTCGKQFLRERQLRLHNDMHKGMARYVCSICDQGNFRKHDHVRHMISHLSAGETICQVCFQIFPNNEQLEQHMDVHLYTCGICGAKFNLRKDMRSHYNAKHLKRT

Experiment [3] deals with T3, Telomere zinc finger-associated protein (Homo sapiens) (UniProt P10074).
T3 sequence (whole entry): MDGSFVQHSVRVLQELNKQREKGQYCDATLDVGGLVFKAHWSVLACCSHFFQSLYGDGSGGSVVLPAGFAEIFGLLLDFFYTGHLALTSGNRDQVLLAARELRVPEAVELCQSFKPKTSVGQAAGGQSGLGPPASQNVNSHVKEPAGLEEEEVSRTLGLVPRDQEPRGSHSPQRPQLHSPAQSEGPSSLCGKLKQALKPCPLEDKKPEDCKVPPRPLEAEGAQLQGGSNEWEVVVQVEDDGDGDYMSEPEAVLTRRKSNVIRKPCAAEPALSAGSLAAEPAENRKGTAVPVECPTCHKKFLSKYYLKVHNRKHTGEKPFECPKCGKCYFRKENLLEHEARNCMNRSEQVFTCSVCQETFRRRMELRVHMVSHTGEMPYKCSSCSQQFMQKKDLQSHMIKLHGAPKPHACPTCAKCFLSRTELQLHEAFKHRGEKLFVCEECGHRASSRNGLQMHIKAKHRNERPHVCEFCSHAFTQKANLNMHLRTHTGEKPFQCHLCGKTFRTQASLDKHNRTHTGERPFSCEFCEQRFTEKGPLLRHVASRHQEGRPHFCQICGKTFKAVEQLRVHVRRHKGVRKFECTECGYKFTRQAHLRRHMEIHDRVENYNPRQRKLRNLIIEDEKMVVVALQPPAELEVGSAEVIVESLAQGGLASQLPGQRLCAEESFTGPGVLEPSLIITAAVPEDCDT

The target of experiment [4] is T2, Zinc finger and BTB domain-containing protein 1 (Homo sapiens). This is another data set of the same source.

On to `C[C@@H]1CN(c2ncc(Cl)c(Nc3ccc4c(c3)n(CCC(C)(C)O)c(=O)n4C)n2)C[C@H](C)C1(F)F`, for which the Normalized abundances for DMSO in experiment [1] came to 643; in experiment [2], 3560; in experiment [3] it was 1060; in experiment [4], 3560. Moreover, the Normalized abundances for compound in experiment [1] is 661; in experiment [2], 3620; in experiment [3], 1080; in experiment [4] it was 3500.

The values are drawn from ChEMBL document CHEMBL5058646 (2022).
